Reference: US20010036626A1, “Screening assay methods and systems using target pooling” (priority 2000, published 2001)

Tested on: CHO cell line expressing the M1 muscarinic receptor
Assay: Pooled two-target microfluidic screen: Fluo-4 green fluorescence response of CHO-M1 cells
Type: cell-based
Conditions: pooled with THP-1 cells, microfluidic channel, blue excitation light, FIG. 6
Procedure: A THP-1 cell line was labeled with Fura red. Both cell lines were pooled and introduced into microfluidic device having the channel structure illustrated in FIG. 5. The cells were flowed through the main channel of the device past a detector that excited the cells with blue excitation light. Green fluorescence was analyzed from the Fluo-4 labeled CHO cells to measure their response to the test compounds. The measurement of the different fluorescence was accomplished simultaneously through the use of appropriate beam splitters and filters in the optical train of the detector. Similarly, red fluorescence was measured from the Fura-red labeled THP-1 cells to measure their response. […] Similarly, different concentrations of UTP were also contacted with the cells flowing through the channel and the results for each system were plotted (FIG. 6C-D).

C[N+](C)(C)CCOC(N)=O [carbachol]
green fluorescence response of Fluo-4 labeled CHO-M1 cells to different concentrations of test compound: dose dependent change
